Source: patent US5985885A, “Quinazoline-4-amino-2-(piperidine-1-yl-4-substituted) derivatives having antihypertensive activity, a method for their preparation and their pharmaceutical use” (priority 1996, dated 1999)

Target: alpha1A + alpha1C adrenergic receptor (human prostate)
Assay: [3H]-prazosin binding in human prostate
Details: alpha1A + alpha1C subtype, pH 7.5, 30 min, 25° C., read-out: Inhibition of the binding of [3H]-prazosin IC50

- IC50: 2.3 nM
Compound: COc1cc2nc(N3CCN(C(=O)c4ccco4)CC3)nc(N)c2cc1OC [Prazosin, reference compound]
